# Literature values, collected in patent US20090054564A1, “Piperazine polyphosphate, methods for its preparation and its use” (Clariant International Ltd., priority 2007, published 2009).
# Details: prior art WO-2005/037 806, purest product
substance,measurement,value
piperazine pyrophosphate,"decomposition temperature (5% weight loss, WL)",324 °C
